# Test results: ChEMBL document CHEMBL1154109, “In vitro biological activity and structural analysis of 2,4-diamino-5-(2'-arylpropargyl)pyrimidine inhibitors of Candida albicans” (Bioorg Med Chem, 2009)
# Molecular target: T1, Dihydrofolate reductase (Homo sapiens, UniProt P00374)
# T1 sequence (P00374 whole entry): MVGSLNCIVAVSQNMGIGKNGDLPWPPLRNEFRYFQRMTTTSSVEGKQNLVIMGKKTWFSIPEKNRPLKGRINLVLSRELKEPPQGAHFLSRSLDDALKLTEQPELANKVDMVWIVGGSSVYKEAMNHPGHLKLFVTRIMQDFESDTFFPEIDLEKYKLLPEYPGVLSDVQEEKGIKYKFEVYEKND
row,IC50 [nM],SMILES
1,1580,COc1cc(CC#Cc2c(C)nc(N)nc2N)cc(-c2c(C)cccc2C)c1
2,1200,COc1ccc(OC)c(C(O)C#Cc2c(C)nc(N)nc2N)c1 (racemic)
3,2300,COc1cc(-c2ccccc2)cc(C(O)C#Cc2c(C)nc(N)nc2N)c1 (racemic)
4,88,CCc1nc(N)nc(N)c1C#CC(C)c1cc(OC)c(OC)c(OC)c1 (racemic)
5,290,COc1cc(C(C#Cc2c(C)nc(N)nc2N)C(C)C)cc(OC)c1OC (racemic)
